# Reference: US20050165030A1, “Pharmaceutical compositions comprising a multifunctional phosphodiesterase inhibitor and an adenosine uptake inhibitor” (priority 2001, published 2005)
# Tested on: adenosine uptake into washed human platelets
# Assay: cells
# Conditions: Platelet, read-out: IC50 of adenosine uptake inhibition
structure (smiles),measurement,value
"O=C1CCc2cc(OCCCCc3nnnn3C3CCCCC3)ccc2N1 [cilostazol, 6-[4-(1-cyclohexyl-1H-tetrazol-5yl)butoxy]-3,4-dihydro-2(1H)-quinolinone]",IC50,~7 µM
